Here are results for one molecule from patent US20180185467A1 (Harvard, published 2018).

Assay [1] addresses T1, bacterially-purified recombinant human 14-3-3ε protein (NP_006752.1) (human, UniProt P62258 1-255).
T1 construct: also called recombinant (r) 14-3-3ε; r14-3-3ε
T1 sequence: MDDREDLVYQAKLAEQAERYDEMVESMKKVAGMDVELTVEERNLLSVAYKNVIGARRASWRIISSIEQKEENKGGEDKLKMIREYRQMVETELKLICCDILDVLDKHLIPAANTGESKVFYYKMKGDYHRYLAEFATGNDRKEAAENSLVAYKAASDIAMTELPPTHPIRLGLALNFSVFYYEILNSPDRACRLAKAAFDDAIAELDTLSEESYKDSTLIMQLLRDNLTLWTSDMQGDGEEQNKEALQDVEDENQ
The experiment in a line: in vitro binding assay on glutathione beads, immunoblot. On the technique in general: A western blot detects proteins with antibodies after separation by electrophoresis.

The target of assay [2] is T2, FLAG-14-3-3ε (UniProt P62258 1-255).
T2 construct: Expressed in 293T cells; also called FLAG-tagged 14-3-3ε; not shown: N-terminal FLAG tag (pEF-BOS vector)
T2 sequence: T1 sequence
The experiment in a line: GST pull-down in 293T cells, immunoblot.

B1: GST (Glutathione S-transferase alone) (other)
chain: MSPILGYWKIKGLVQPTRLLLEYLEEKYEEHLYERDEGDKWRNKKFELGLEFPNLPYYIDGDVKLTQSMAIIRYIADKHNMLGGCPKERAEISMLEGAVLDIRYGVSRIAYSKDFETLKVDFLSKLPEMLKMFEDRLCHKTYLNGDHVTHPDFMLYDALDVVLYMDPMCLDAFPKLVCFKKRIEAIPQIDKYLKSSKYIAWPLQGWQATFGGGDHPPK
notes: Control; also called GST alone
As to B1, the binding result in assay [1] is “no binding (tested: 10 µg/ml)”; in assay [2] it was “no binding”.
